# Measured values reported in article PMC9785397, “Exploiting Conserved Quorum Sensing Signals in Streptococcus mutans and Streptococcus pneumoniae” (Microorganisms, 2022).
# Tests used:
# [1] = test system: S. mutans bacteriocin production against S. oralis; test: Bacteriocin overlay assay, S. mutans spotted on S. oralis; type: cell-based, Streptococcus mutans; details: analog 20 μM with CSP1 20 μM, 16 h, p < 0.05 vs CSP1
# Description: (§1) During the formation of complex biofilm such as dental plaque, the ability of S. mutans to compete with other commensal species determines the success of the cariogenesis process. S. mutans uses antibacterial peptides, namely, bacteriocins, to overcome and subvert the composition of dental microbiota. We investigated the production of bacteriocins using the overlay assay. Overnight cultures of S. mitis, S. oralis, S. sanguinis, P. aeruginosa, F. nucleatum, or P. gingivalis were diluted 1:100 in BHI or TS broth and incubated at 37 °C until they reached an OD620 of 0.3. Cultures were added with agar (BD Difco^TM Agar) at the final concentration of 1.5% w/v and transferred in plates. Overnight cultures of S. mutans were diluted 1:100 in BHI and added with peptides (20 μM) or the vehicle with or without CSP1. Culture media were supplemented with agar to reach the final concentration of 0.7% w/v. The solutions were spotted on the surface of agar plates prepared as described above. […]
# (§2) Spots (10 for each experimental group) were acquired and analyzed using NIH Image J software (version 1.53t August 2022, https://imagej.nih.gov/ij/index.html; accessed on 7 September 2022). The appearance of a clear area on the plate (bacterial growth inhibition) was evaluated as indicative of bacteriocin activity. The diameters of the area were measured in a blinded fashion.
# [2] = test system: S. mutans bacteriocin production against S. sanguinis; test: Bacteriocin overlay assay, S. mutans spotted on S. sanguinis; type: cell-based, Streptococcus mutans; details: analog 20 μM with CSP1 20 μM, 16 h, p < 0.05 vs CSP1
# Description: as §1, §2
# S. sanguinis = type: cell-based, Streptococcus sanguinis; details: peptides 0–50 μM, 16 h, 37 °C, microaerophilic, A620 nm, three separate experiments
# Text: (§3) Streptococcus mutans Clarke (strain designation NCTC 10449), Pseudomonas aeruginosa (Schroeter) Migula (strain designation PAO1), Fusobacterium nucleatum, subspecies nucleatum (strain VPI 4355), and Porphyromonas gingivalis (strain 2561) were purchased from ATCC (LGC Standards Srl, Milan, Italy). Streptococcus mitis, Streptococcus oralis, and Streptococcus sanguinis were obtained from clinical isolates and characterized by morphological, biochemical, and molecular typing. S. mutans, S. mitis, S. oralis, and S. sanguinis were maintained in Brain Heart Infusion (BHI) broth or agar under microaerophilic conditions. P. aeruginosa was maintained in trypticase soy (TS) agar or broth. F. nucleatum was maintained in TS agar or broth with defibrinated sheep blood under anaerobic conditions. P. gingivalis was maintained in ATCC Medium 2722 supplemented with TS broth or agar under anaerobic conditions. […]
# (§4) The antimicrobial activities of the tested peptides were assessed through the determination of the minimum inhibitory concentration (MIC) standardized by the Clinical and Laboratory Standards Institute. […] At the end of incubation, bacterial growth was recorded using a microplate reader (Varioskan Lux Reader; Thermo Fisher Scientific, Milan, Italy) by quantifying the adsorption at 620 nm. […]
# [3] = test system: S. mutans bacteriocin production against S. mitis; test: Bacteriocin overlay assay, S. mutans spotted on S. mitis; type: cell-based, Streptococcus mutans; details: analog 20 μM with CSP1 20 μM, 16 h, p < 0.05 vs CSP1
# Description: as §1, §2
# S. oralis = type: cell-based, Streptococcus oralis; details: peptides 0–50 μM, 16 h, 37 °C, microaerophilic, A620 nm, three separate experiments
# Text: as §3, §4
# S. mutans = type: cell-based, Streptococcus mutans; details: peptides 0–50 μM, 16 h, 37 °C, microaerophilic, A620 nm, three separate experiments
# Text: as §3, §4
# P. aeruginosa = type: cell-based, Pseudomonas aeruginosa; details: peptides 0–50 μM, 16 h, 37 °C, aerobic, A620 nm, three separate experiments
# Text: as §3, §4
# P. gingivalis = type: cell-based, Porphyromonas gingivalis; details: peptides 0–50 μM, 16 h, 37 °C, anaerobic, A620 nm, three separate experiments
# Text: as §3, §4
# S. mitis = type: cell-based, Streptococcus mitis; details: peptides 0–50 μM, 16 h, 37 °C, microaerophilic, A620 nm, three separate experiments
# Text: as §3, §4
# F. nucleatum = type: cell-based, Fusobacterium nucleatum; details: peptides 0–50 μM, 16 h, 37 °C, anaerobic, A620 nm, three separate experiments
# Text: as §3, §4
structure (smiles),measurement,setting,value
CC[C@H](C)[C@H](NC(=O)[C@H](Cc1ccccc1)NC(=O)[C@H](CC(=O)O)NC(=O)[C@H](CCCNC(=N)N)NC(=O)[C@H](Cc1ccccc1)NC(=O)[C@H](Cc1ccccc1)NC(=O)[C@H](CCCCN)NC(=O)[C@H](CO)NC(=O)[C@H](CC(C)C)NC(=O)[C@H](CCCNC(=N)N)NC(=O)[C@H](CCSC)NC(=O)C[C@@H](N)CCC(=O)O)C(=O)N[C@@H](CC(C)C)C(=O)N[C@@H](CCC(N)=O)C(=O)N[C@@H](CCCNC(=N)N)C(=O)N[C@@H](CCCCN)C(=O)N[C@@H](CCCCN)C(=O)O [CSP1hβE],Effect on the CSP1-induced antibacterial effects against S. oralis,[1],did not report significant effects
same,Effect on the CSP1-induced antibacterial effects against S. sanguinis,[2],did not report significant effects
same,"Minimum inhibitory concentration (MIC), S. sanguinis",S. sanguinis,20 µM
same,Effect on the CSP1-induced antibacterial effects against S. mitis,[3],did not report significant effects
same,"Minimum inhibitory concentration (MIC), S. oralis",S. oralis,20 µM
same,"Minimum inhibitory concentration (MIC), S. mutans",S. mutans,20 µM
same,"Minimum inhibitory concentration (MIC), P. aeruginosa",P. aeruginosa,>50 µM
same,"Minimum inhibitory concentration (MIC), P. gingivalis",P. gingivalis,>50 µM
same,"Minimum inhibitory concentration (MIC), S. mitis",S. mitis,20 µM
same,"Minimum inhibitory concentration (MIC), F. nucleatum",F. nucleatum,>50 µM
